Measurements: patent US20220389377A1, “TREATMENT OF MEDICAL CONDITIONS BY STEM CELL TRANSPLANTS AND STEM CELL ACTIVATION” (Vitro Biopharma, Inc., priority 2021, published 2022)

Experiments:
Conditions in all cases: read-out: EC50 of Substance P-induced migration, percent closure at 24 hours, sigmoidal curve fit
human MSCs = test system: human MSCs
Procedure: (§1) FIG. 1 is a microphotograph depicting cell migration using fluorescent readout and cell tracker green as a fluorescent marker of human UC-MSCs. […] The EC50 was determined as a measure of effectiveness of activating agents. […] An initial analysis of the cell free zone using Image J software was used to screen concentrations of activating agents for dose-response determination in further experiments.
(§2) The cell migration assays described above were set up as follows: One million cells/cell line were resuspended in 10 mL MSC-Gro™ serum free, quiescent medium (Vitro Biopharma Cat. No. SCO0B17) containing 5 μg/mL mitomycin C (Sigma, Cat. No. M4287) to inhibit proliferation and incubated for 2 hours at room temperature with end-to-end agitation at 7 RPM.
(§3) In some experiments, curcumin was used at 1 μM to block proliferation. Cells were centrifuged (450×g) for 7 minutes, washed with PBS and then resuspended in 1 mL MSC-Gro™ low serum, complete medium (Vitro Biopharma Cat. No. SCO0B1) and plated at 25,000 cells/well in black 96 well, TC-coated cell culture plates (ThermoScientific, Cat. No. 165305) containing cell seed-stoppers (Platypus, Cat. No. CMAUFL4) to form a cell free zone at the center of the well and incubated in 5% CO2, 1% O2, 94% N2 at 37° C. in a humidified chamber for 24 hrs. Plates used for culture of NSCs were first treated with 10 μg/mL fibronectin (Sigma, Cat. No. F0556) for 2 hours at 37° C. Following washout with PBS (3×), cell seed stoppers were inserted, NSCs were plated at 25,000/well and incubated in 5% CO2, 1% O2, 94% N2 at 37° C. in a humidified chamber for 48 hrs.
(§4) For studies of the effects of CXCR4 and MMP-9 inhibition following 24 hours of cell culture, appropriate wells were dosed with 15 μM GM6001 and 20 μM AMD3100 for 6 hours. Cells were washed once with PBS then incubated in serum free, MSC-Gro™ (Vitro Biopharma Cat. No. SCO0B17) containing 5 μM Cell Tracker Green CIVIFDA (Molecular Probes, Cat. No. C7025) at 37° C. for 30 minutes. […] A TopSeal (PerkinElmer, Cat. No. 6050195) covered the plate for live-cell imaging in a BioTek Cytation3 imaging reader. […]

human NSCs = test system: human NSCs
Procedure: as §1, §2, §3, §4

[1] = test system: human pancreatic fibroblasts
Procedure: as §1, §2, §3, §4

In the case of `CSCC[C@H](NC(=O)[C@H](CC(C)C)NC(=O)CNC(=O)[C@H](Cc1ccccc1)NC(=O)[C@H](Cc1ccccc1)NC(=O)[C@H](CCC(N)=O)NC(=O)[C@H](CCC(N)=O)NC(=O)[C@@H]1CCCN1C(=O)[C@H](CCCCN)NC(=O)[C@@H]1CCCN1C(=O)[C@@H](N)CCCNC(=N)N)C(N)=O` [Substance P], the EC50 (human MSCs) is reported as 2.48 nM, the EC50 (human NSCs) is reported as 2.35 nM and the EC50 [1] is reported as 2.5 nM.
